Assay results published in article PMC8495968, “Towards optimizing peptide-based inhibitors of protein–protein interactions: predictive saturation variation scanning (PreSaVS)” (RSC Chemical Biology, 2021).

Amino acid sequences for entries named in this document (tags omitted). Residues count along the entry.
UniProt P63165, 18-97: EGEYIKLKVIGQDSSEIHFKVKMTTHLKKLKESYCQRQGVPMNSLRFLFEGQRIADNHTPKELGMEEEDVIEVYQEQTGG

Molecular target: T1, hSUMO-1 18-97 (Homo sapiens, UniProt P63165)
T1 construct: 18-97; His-TEV (N, cleaved yes); made in house
Assay: Fluorescence anisotropy competition assay, FITC-peg-SIM tracer / SUMO
Format: binding
Description: hSUMO-1 18-97 was expressed and purified as previously described from a pet19b His-TEV-SUMO-1 (18-97) construct with cleavage of the tag using TEV protease.4 […]
Fluorescence anisotropy assays were performed in 384-well plates (Greiner Bio-one). Each experiment was run in triplicate and the fluorescence anisotropy measured using a Perkin Elmer EnVisionTM 2103 MultiLabel plate reader, with excitation at 480 nm (30 nm bandwidth), polarised dichroic mirror at 505 nm and emission at 535 nm (40 nm bandwidth, S and P polarised). All assays were performed in 20 mM Tris, 100 mM NaCl, 0.1 mM DTT, pH 7.5 unless otherwise stated and data analysed following previously published methods.
Fluorescence anisotropy data was processed as described previously.[2] […]
For direct titration the average anisotropy (across three experimental replicates) and the standard deviation of these values were then calculated and fit to a logistic model using OriginPro 9.0 to determine the maximum and minimum anisotropies then the fraction bound calculated (Equation 3) and used to determine Kd (equation 4) […]
For competition experiments, the anisotropies were determined as for the direct titration and then plotted against inhibitor concentration and fit (equation 5) to determine the IC50 and error […]

IC50: 21.9 ± 0.3 µM
SMILES: CC[C@H](C)[C@H](NC(=O)[C@H](CCC(=O)O)NC(=O)[C@H](CC(N)=O)NC(=O)[C@H](CC(=O)O)NC(C)=O)C(=O)N[C@@H](CCC(=O)O)C(=O)N[C@H](C(=O)N[C@H](C(=O)N[C@H](C(=O)N[C@H](C(=O)N[C@@H](Cc1c[nH]c2ccccc12)C(=O)N[C@@H](CCC(=O)O)C(=O)N[C@@H](CCCCN)C(=O)N[C@@H](CCCCN)C(N)=O)C(C)C)[C@@H](C)CC)[C@@H](C)CC)C(C)C [SIM2705–2717]
